Laboratory results from ChEMBL document CHEMBL1649420, “Identifying chelators for metalloprotein inhibitors using a fragment-based approach” (J Med Chem, 2011).

Target: T1, Polyunsaturated fatty acid 5-lipoxygenase (Homo sapiens) (UniProt P09917)
T1 sequence (whole entry): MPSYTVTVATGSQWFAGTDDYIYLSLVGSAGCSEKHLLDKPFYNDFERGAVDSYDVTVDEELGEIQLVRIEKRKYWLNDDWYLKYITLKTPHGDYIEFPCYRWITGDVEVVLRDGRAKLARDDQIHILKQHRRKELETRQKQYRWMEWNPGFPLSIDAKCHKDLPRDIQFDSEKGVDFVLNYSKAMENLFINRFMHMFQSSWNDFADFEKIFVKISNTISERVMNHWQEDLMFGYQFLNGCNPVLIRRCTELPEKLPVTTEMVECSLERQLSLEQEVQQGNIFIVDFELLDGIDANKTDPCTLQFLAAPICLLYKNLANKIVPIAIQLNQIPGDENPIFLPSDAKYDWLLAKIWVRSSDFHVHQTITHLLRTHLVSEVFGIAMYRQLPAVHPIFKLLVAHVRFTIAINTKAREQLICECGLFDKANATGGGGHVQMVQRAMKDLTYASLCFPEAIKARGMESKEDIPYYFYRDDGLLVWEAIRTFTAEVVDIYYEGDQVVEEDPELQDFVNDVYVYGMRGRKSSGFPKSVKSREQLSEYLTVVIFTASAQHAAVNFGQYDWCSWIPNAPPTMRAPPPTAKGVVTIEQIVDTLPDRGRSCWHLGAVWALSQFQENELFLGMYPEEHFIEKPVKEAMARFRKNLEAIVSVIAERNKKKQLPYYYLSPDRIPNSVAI
Assay: Inhibition of human recombinant 5-lipoxygenase at 1 mM after 10 mins by fluorescence assay

SMILES: O=C(O)c1ccc2cccc(O)c2n1
- inhibition: 61%
